Measured values: patent US20110059910A1, “Novel aromatic fluoroglycoside derivatives, pharmaceuticals comprising said compounds and the use thereof” (SANOFI-AVENTIS, priority 2008, published 2011)

The chains behind the UniProt entries cited, without tags or fusion partners.
UniProt P31639, whole entry: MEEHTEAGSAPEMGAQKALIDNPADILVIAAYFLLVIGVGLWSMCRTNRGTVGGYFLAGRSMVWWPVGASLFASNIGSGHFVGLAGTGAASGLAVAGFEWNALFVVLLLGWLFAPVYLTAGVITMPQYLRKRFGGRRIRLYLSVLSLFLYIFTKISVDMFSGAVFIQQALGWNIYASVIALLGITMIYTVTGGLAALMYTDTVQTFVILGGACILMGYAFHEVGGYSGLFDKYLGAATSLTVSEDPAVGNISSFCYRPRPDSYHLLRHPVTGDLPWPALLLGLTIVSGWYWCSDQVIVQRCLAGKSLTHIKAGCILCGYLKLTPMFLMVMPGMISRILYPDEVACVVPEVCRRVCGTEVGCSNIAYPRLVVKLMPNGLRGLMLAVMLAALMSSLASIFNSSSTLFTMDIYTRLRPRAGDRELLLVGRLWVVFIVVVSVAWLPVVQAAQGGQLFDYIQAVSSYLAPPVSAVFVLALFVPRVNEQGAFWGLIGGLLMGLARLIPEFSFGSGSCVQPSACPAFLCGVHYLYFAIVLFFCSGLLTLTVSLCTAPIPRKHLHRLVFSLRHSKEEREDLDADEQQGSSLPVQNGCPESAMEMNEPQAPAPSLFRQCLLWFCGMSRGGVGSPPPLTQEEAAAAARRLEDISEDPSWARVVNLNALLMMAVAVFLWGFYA
UniProt P13866, whole entry: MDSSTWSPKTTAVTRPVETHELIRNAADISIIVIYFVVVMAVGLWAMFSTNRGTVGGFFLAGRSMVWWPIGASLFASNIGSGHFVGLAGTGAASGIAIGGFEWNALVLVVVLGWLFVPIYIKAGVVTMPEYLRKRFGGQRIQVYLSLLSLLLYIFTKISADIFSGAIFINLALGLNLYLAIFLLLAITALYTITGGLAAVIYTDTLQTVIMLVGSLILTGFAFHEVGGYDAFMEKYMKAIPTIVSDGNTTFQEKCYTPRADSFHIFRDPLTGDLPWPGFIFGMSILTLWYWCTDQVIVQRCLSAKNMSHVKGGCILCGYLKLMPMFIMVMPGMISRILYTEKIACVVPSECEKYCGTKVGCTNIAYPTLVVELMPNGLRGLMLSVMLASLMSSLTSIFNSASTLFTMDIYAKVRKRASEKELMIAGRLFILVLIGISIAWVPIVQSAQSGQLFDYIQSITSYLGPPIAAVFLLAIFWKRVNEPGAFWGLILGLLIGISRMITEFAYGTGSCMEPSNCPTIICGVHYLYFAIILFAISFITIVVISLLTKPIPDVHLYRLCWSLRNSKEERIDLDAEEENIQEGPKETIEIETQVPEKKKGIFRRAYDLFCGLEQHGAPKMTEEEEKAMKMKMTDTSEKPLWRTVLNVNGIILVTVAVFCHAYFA

What was measured:
[1] = molecular target: human sodium-dependent glucose transporter 2 (SGLT2, SLC5A2) (Homo sapiens, UniProt P31639); test: Inhibition of the transport activity of human SGLT2 in vitro (α-MDG uptake in CHO-TRex-hSGLT2 cells); details: read-out: IC50 SGLT2, 50 μM α-MDG, 120 min at 37° C.
Excerpt: Inhibition of the Transport Activity of the Human Sodium-Dependent Glucose Transporter 2 (SGLT2, SLC5A2) In Vitro
1. Cloning of an Expression Vector for Human SGLT2
The cDNA for human SGLT2 was introduced into the pcDNA4/TO vector (Invitrogen) by means of standard methods of molecular biology as described in Sambrook et al. (Molecular Cloning, A Laboratory Manual, Second Edition). […] Bases 21 to 2039 correspond to the complete coding region of human SGLT2.
2. Production of a Recombinant Cell Line with Inducible Expression of Human SGLT2
The expression vector for human SGLT2 was introduced into CHO-TREx cells (Invitrogen) by means of FuGene6 lipofection (Roche). […]
(§1) CHO-TRex-hSGLT2 cells were seeded in cell culture medium in a concentration of 50 000 cells per well in Cytostar-T scintillating 96-well plates (Amersham Biosciences) and cultivated for 24 h. […] After an incubation time of 120 min at 37° C., the reaction was stopped by adding 50 μl/well of 10 mM methyl-α-D-glucopyranoside in transport assay buffer (4° C.), and the radioactivity taken up into the cells was determined in a MicroBeta Scintillation Microplate Reader (Wallac).
The half-maximum inhibiting action of the test substances (IC50 value) was determined as follows: • 1. […] This is the measurement in the absence of substance, measured in sodium-containing transport assay buffer. • 2. […]

[2] = molecular target: human sodium-dependent glucose transporter 1 (SGLT1, SLC5A1) (Homo sapiens, UniProt P13866); test: Inhibition of the transport activity of human SGLT1 in vitro (α-MDG uptake in CHO-TRex-hSGLT1 cells); details: read-out: IC50 SGLT1, 50 μM α-MDG, 30 min at room temperature
Excerpt: Inhibition of the Transport Activity of the Human Sodium-Dependent Glucose Transporter 1 (SGLT1, SLC5A1) In Vitro:
1. Cloning of an Expression Vector for Human SGLT1
The cDNA for human SGLT1 was introduced into the pcDNA4/TO vector (Invitrogen) by means of standard methods of molecular biology as described in Sambrook et al. (Molecular Cloning, A Laboratory Manual, Second Edition). […] Bases 11 to 2005 correspond to the complete coding region of human SGLT1.
2. Production of a Recombinant Cell Line with Inducible Expression of Human SGLT1
The expression vector for human SGLT1 was introduced into CHO-TRex cells (Invitrogen) by means of FuGene6 lipofection (Roche). […]
as §1, with “CHO-TRex-hSGLT1” for “CHO-TRex-hSGLT2”, “30” for “120”, “room temperature,” for “37° C.,”
The half-maximum inhibiting action of the test substances (IC50 value) was determined as follows: • 4. […] This is the measurement in the absence of substance, measured in sodium-containing transport assay buffer. • 5. […]

Work on COc1ccc(Cc2cc([C@@H]3O[C@H](CO)[C@@H](F)[C@H](O)[C@H]3O)ccc2Cl)cn1 yielded an IC50 [1] of 295 nM and an IC50 [2] of 3700 nM.

COc1ccc(Cc2cc([C@@H]3O[C@H](CO)[C@@H](F)[C@H](O)[C@H]3O)ccc2C)cc1 showed an IC50 [1] of 7.9 nM and an IC50 [2] of 459 nM.
